Experimental data as given in publication PMC5026484, “bMERB domains are bivalent Rab8 family effectors evolved by gene duplication” (eLife, 2016).

Molecular target: T1, Rab1b, full length, loaded with GppNHp (human, UniProt Q9H0U4 1-201)
T1 construct: Rab1b, human; called Rab1 in the results and Rab1bFl in the crystallisation methods; also called Rab1bFl; source: expressed and purified as described previously (Schoebel et al., 2009), loaded with GppNHp, gel filtration
Assay: ITC; iTC200, 25°C; 400 µM Rab titrated into 20–40 µM bMERB domain in the cell; 20 mM Hepes pH 7.5, 50 mM NaCl, 2 mM MgCl2, 1 mM TCEP
Conditions: both partners purified

Row | Kd [µM] | Binder
1 | 2.6 | bMERB domain (Rab binding domain) of Mical-3, residues 1841-1990 (domain or fragment, human, UniProt Q7RTP6 1841-1990, looked up, Mical-3, human, whole predicted bMERB domain, residues 1841-1990 (isoform 1); printed elsewhere as 1841-1992; Limits are stated for the crystallised selenomethionine construct; also called Mical-3_(1841-1990); RBD of Mical-3) KQEELKRLHRAQIIQRQLQQVEERQRRLEERGVAVEKALRGEAGMGKKDDPKLMQEWFKLVQEKNAMVRYESELMIFARELELEDRQSRLQQELRERMAVEDHLKTEEELSEEKQILNEMLEVVEQRDSLVALLEEQRLREREEDKDLEA
2 | 5.2 | bMERB domain (Rab binding domain) of Mical-cL, residues 534-683 (domain or fragment, human, UniProt O94851 1796-1945, looked up, Mical C-terminal like protein (Mical-cL), human, bMERB domain, residues 534-683; Limits are stated for the crystallised construct; also called Mical-cL_(534-683); RBD of Mical-cL) KQEELKRLYKAQAIQRQLEEVEERQRASEIQGVRLEKALRGEADSGTQDEAQLLQEWFKLVLEKNKLMRYESELLIMAQELELEDHQSRLEQKLREKMLKEESQKDEKDLNEEQEVFTELMQVIEQRDKLVDSLEEQRIREKAEDQHFES

Further lines, the binder ahead of its results:

Row | Binder | Kd [µM]
3 | bMERB domain (Rab binding domain) of EHBP1 (domain or fragment, EHBP1 1047-1231 (bMERB domain with CaaX box) is named for the prenylation and localisation experiments only; also called RBD of EHBP1) not shown | > 10
4 | bMERB domain (Rab binding domain) of EHBP1L1 (domain or fragment, EHBP1L1, human, bMERB domain; EHBP1L1 1340-1523 (bMERB domain with CaaX box) is named for the prenylation and localisation experiments only; also called RBD of EHBP1L1) not shown | > 10
5 | bMERB domain (Rab binding domain) of Mical-1, residues 918-1067 (domain or fragment, human, UniProt Q8TDZ2 918-1067, looked up, Mical-1, human, bMERB domain, residues 918-1067 (isoform 1); Limits are stated for the crystallised construct; also called Mical-1_(918-1067); RBD of Mical-1) KEEEMKRFCKAQTIQRRLNEIEAALRELEAEGVKLELALRRQSSSPEQQKKLWVGQLLQLVDKKNSLVAEEAELMITVQELNLEEKQWQLDQELRGYMNREENLKTAADRQAEDQVLRKLVDLVNQRDALIRFQEERRLSELALGTGAQG | 2.2
